Measurements: US20250075003A1 (UIF UNIVERSITY INDUSTRY FOUNDATION YONSEI UNIVERSITY, published 2025)

Target: T1, Human VEGF (human, UniProt P15692-4 27-191, limits assumed)
T1 construct: Immobilised on a CM5 chip for SPR and coated on plates for ELISA (Abcam); also called hVEGF; hVEGF protein (Abcam)
T1 sequence (looked up): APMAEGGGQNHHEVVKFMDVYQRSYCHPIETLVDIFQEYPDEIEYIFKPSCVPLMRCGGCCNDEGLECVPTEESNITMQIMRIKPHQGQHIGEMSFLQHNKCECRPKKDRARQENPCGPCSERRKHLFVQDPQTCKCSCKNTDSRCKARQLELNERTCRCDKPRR
Assay: Indirect ELISA. The target is not named in the legend and is taken as hVEGF from the ELISA section of Example 1-1.

binding result: no binding
B1: HFL (other)
chain: SSQIRQNYSTDVEAAVNSLVNLYLQASYTYLSLGFYFDRDDVALEGVSHFFRELAEEKREGYERLLKMQNQRGGRALFQDIKKPAEDEWGKTPDAMKAAMALEKKLNQALLDLHALGSARTDPHLCDFLETHFLDEEVKLIKKMGDHLTNLHRLGGPEAGLGEYLFERLTLKHD
notes: Ferritin control without scFv; also called hRID-HFL (HFL); not shown: limits and W or 9m version not visible), and any linker, cleavage site or tag between hRID and HFL
